# Measurements reported in US20240043379A1, “PRODRUGS OF CYTOTOXIC ACTIVE AGENTS HAVING ENZYMATICALLY CLEAVABLE GROUPS” (Bayer Pharma Aktiengesellschaft, priority 2016, published 2024).
# System: Caco-2 cells
# Settings: for Papp (B-A): Caco-2, 2 hours incubation
SMILES,Papp (B-A),"Efflux ratio (ratio of Papp (B-A) to Papp (A-B), Caco-2)"
"CC(C)(C)[C@H](c1cc(-c2cc(F)ccc2F)cn1Cc1ccccc1)N(CC[C@H](N)C(=O)NCCNC(=O)CNC(=O)C(CC(=O)O)SC[C@H](N)C(=O)O)C(=O)CO (stereo partly drawn) [Example M27, 4-[(2-{[2-({(2S)-2-Amino-4-[{(1R)-1-[1-benzyl-4-(2,5-difluorophenyl)-1H-pyrrol-2-yl]-2,2-dimethylpropyl}(glycoloyl)amino]butanoyl}amino)ethyl]amino}-2-oxoethyl)amino]-3-{[(2R)-2-amino-2-carboxyethyl]sulphanyl}-4-oxobutanoic acid/trifluoroacetic acid (1:1)]",13.2 nm/s,
"CC(C)(C)[C@H](c1cc(-c2cc(F)ccc2F)cn1Cc1ccccc1)N(CCCN)C(=O)CSC[C@H](N)C(=O)O.O=C(O)C(F)(F)F.O=C(O)C(F)(F)F [Example M11, S-{2-[(3-Aminopropyl){(1R)-1-[1-benzyl-4-(2,5-difluorophenyl)-1H-pyrrol-2-yl]-2,2-dimethylpropyl}amino]-2-oxoethyl}-L-cysteine/trifluoroacetic acid (1:2)]",24.3 nm/s,27.7
"CC(C)(C)[C@H](c1cc(-c2cc(F)ccc2F)cn1Cc1ccccc1)N(CCCN)C(=O)CO [Example M9, N-(3-Aminopropyl)-N-{(1R)-1-[1-benzyl-4-(2,5-difluorophenyl)-1H-pyrrol-2-yl]-2,2-dimethylpropyl}-2-hydroxyacetamide]",213 nm/s,
